Measurements published in US20190055563.

Molecular target: T1, recombinant human GST-RAD51, Q06609
T1 chain: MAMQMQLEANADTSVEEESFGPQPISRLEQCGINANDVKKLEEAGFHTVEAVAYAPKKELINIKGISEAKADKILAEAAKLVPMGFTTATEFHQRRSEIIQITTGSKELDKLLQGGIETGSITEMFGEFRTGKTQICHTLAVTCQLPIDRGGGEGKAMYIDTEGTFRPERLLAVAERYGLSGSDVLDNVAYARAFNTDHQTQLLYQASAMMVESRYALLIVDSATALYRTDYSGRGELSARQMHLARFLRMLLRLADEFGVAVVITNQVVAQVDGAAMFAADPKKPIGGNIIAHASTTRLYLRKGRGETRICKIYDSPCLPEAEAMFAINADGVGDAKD

B1: ΔPol2 ΔRAD51 (protein)
chain: MNLLRRSGKRRRSESGSDSFSGSGGDSSASPQFLSGSVLSPPPGLGRCLKAAAAGECKPTVPDYERDKLLLANWGLPKAVLEKYHSFGVKKMFEWQAECLLLGQVLEGKNLVYSAPTSAGKTLVAELLILKRVLEMRKKALFILPFVSVAKEKKYYLQSLFQEVGIKVDGYMGSTSPSRHFSSLDIAVCTIERANGLINRLIEENKMDLLGMVVVDELHMLGDSHRGYLLELLLTKICYITRKSASCQADLASSLSNAVQIVGMSATLPNLELVASWLNAELYHTDFRPVPLLESVKVGNSIYDSSMKLVREFEPMLQVKGDEDHVVSLCYETICDNHSVLLFCPSKKWCEKLADIIAREFYNLHHQAEGLVKPSECPPVILEQKELLEVMDQLRRLPSGLDSVLQKTVPWGVAFHHAGLTFEERDIIEGAFRQGLIRVLAATSTLSSGVNLPARRVIIRTPIFGGRPLDILTYKQMVGRAGRKGVDTVGESILICKNSEKSKGIALLQGSLKPVRSCLQRREGEEVTGSMIRAILEIIVGGVASTSQDMHTYAACTFLAASMKEGKQGIQRNQESVQLGAIEACVMWLLENEFIQSTEASDGTEGKVYHPTHLGSATLSSSLSPADTLDIFADLQRAMKGFVLENDLHILYLVTPMFEDWTTIDWYRFFCLWEKLPTSMKRVAELVGVEEGFLARCVKGKVVARTERQHRQMAIHKRFFTSLVLLDLISEVPLREINQKYGCNRGQIQSLQQSAAVYAGMITVFSNRLGWHNMELLLSQFQKRLTFGIQRELCDLVRVSLLNAQRARVLYASGFHTVADLARANIVEVEVILKNAVPFKSARKAVGVQWNPCALLHSSTCSLTHSESEVKEHTFISQTKSSYKKLTSKNKSNTIFSDSYIKHSPNIVQDLNKSREHTSSFNCNFQNGNQEHQTCSIFRARKRASLDINKEK
RAD51-ssDNA nucleofilament assembly: RAD51-ssDNA assembly was reduced by wild-type ΔPol2 but not by A-dead or ΔRAD51
